Measured values: ChEMBL document CHEMBL1140704, “Further structure-activity relationships study of hybrid 7-{[2-(4-phenylpiperazin-1-yl)ethyl]propylamino}-5,6,7,8-tetrahydronaphthalen-2-ol analogues: identification of a high-affinity D3-preferring agonist with potent in vivo activity with long duration of action” (J Med Chem, 2008)

Protein sequences, listed by entry. Tags and fused reporters are not part of them.
UniProt P14416, whole entry: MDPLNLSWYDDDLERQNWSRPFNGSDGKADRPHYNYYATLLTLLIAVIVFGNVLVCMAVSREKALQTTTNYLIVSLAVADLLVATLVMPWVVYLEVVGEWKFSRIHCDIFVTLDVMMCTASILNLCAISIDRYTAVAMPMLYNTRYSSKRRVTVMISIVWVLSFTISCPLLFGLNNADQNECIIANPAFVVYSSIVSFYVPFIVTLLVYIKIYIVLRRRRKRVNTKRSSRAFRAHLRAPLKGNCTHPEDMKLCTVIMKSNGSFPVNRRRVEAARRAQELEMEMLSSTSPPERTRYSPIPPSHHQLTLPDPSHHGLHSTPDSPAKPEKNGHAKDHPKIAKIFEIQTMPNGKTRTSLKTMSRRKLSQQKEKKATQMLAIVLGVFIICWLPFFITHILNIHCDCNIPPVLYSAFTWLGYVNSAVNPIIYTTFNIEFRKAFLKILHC

Biological target: D(2) dopamine receptor (Homo sapiens, UniProt P14416)
Assay: biochemical

Compound: CCCN(CCN1CCN(c2ccccc2)CC1)C1CCc2c(O)cccc2C1 (stereo in doubt; (-)-25)
- Ki: 26 nM
